## Binding of CDR-mutated scFvs to a peptide of the spike HR2 region

Values reported by Engelhart et al. 2022, doi:10.1038/s41597-022-01779-4 (FLAb copy).

Target peptide (SARS-CoV-2 spike, HR2 region): PDVDLGDISGINAS

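The parent was found by panning a naive human phage display library on the peptide. Variants in AAYL49 differ from the parent at up to three CDR positions; double and triple changes were sampled at random. AlphaSeq pools MATa yeast showing the antibodies with MATalpha yeast showing the peptide. Binding brings cells together so that they mate, and sequencing counts the barcode pairs among the diploids. Each replicate has its own calibration line, from reference interactions of the BCL2 family. Each pool was mated in three replicate cultures.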

The variants keep the light chain, the linker and the frameworks of Ab-14 (scFv order VH, a (GGGGS)3 linker, VL).
VH: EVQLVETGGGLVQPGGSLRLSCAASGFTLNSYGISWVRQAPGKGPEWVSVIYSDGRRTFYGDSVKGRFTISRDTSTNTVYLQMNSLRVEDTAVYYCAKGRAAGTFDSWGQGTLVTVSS
VL: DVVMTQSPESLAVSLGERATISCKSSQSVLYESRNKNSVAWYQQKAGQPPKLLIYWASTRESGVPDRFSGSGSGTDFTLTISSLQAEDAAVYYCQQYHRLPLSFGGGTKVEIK

The parent's heavy chain CDRs are GFTLNSYGIS, VIYSDGRRTFYGDSVK, GRAAGTFDS; each variant's own CDRs replace them letter for letter. Every variant below is changed at Y52 of the VH (sequential numbering). Values are apparent Kd, the geometric mean of the replicates that gave a signal; lower means stronger binding. An entry "no signal" has no value in the source: the pair was not observed among the diploids in any replicate. This suggests poor binding but is not conclusive. For reference, the parent read 4.4 nM as the reference entry and 13 µM (one replicate of three) as a member of this library.

CDR-H1	CDR-H2	CDR-H3	apparent Kd	detected
HFTLNSYGIS	VIQSDGRTTFYGDSVK	GRAAGTFDS	110 µM	2/3
GFTLNSYGIN	VITSDGRRLFYGDSVK	GRAAGTFDS	78 µM	3/3
GFTLNSYGIS	VIRSDGRRTFYGSSVK	GRMAGTFDS	no signal	0/3
GFTLNSYGIS	VIASDGRRTFYGDSVK	GCACGTFDS	no signal	0/3
GFTLNSYGIS	VIRSDGDRTFDGDSVK	GRAAGTFDS	230 µM	1/3
GFTLNSYGIS	LISSDGRRTFYGDSVK	GRAAGTFDS	no signal	0/3
GFTLNSYGIS	VIKSYGRRTFYGDSVK	GRKAGTFDS	no signal	0/3
GFTLNSYGIS	VIDSDGRRTFYGDSVK	LDAAGTFDS	no signal	0/3
GFTLGSYGIS	VIKSDGRRTFYGDSVK	GRAVGTFDS	1.5 µM	2/3
GFTLNSYGIS	VIFNDGRRTFYGDSVK	GRAAGTKDS	2.7 µM	1/3
GFTLSSYGIS	VIRSDGRRTFYGDSVV	GRAAGTFDS	4.1 µM	1/3
GFTLNSSGIS	VIKSDGRRDFYGDSVK	GRAAGTFDS	no signal	0/3
GFTLNSYGIW	VIKSDGRRTFYGDSVK	GRAAGIFDS	no signal	0/3
GFTLNSYGIS	VFGSDGHRTFYGDSVK	GRAAGTFDS	no signal	0/3
GFTLNSYGES	VIQSDGRRTFYGDMVK	GRAAGTFDS	no signal	0/3
GFTLNSYGIS	VITSDGRRTFYGDSDK	GRAAGTFVS	no signal	0/3
GFTLNSYGIS	VIPSDGRRTFYGDSVK	GRAEGTFDR	210 µM	1/3
GFTLNSYGIS	VIHSDGRRTFYGDSVK	GRKAGTFMS	360 nM	2/3
GSTLNSYGIS	VILSDGRRTFYMDSVK	GRAAGTFDS	no signal	0/3
GFTLASYGIS	VIESDGRRTFYGDSVK	GRAAGTFPS	240 nM	1/3
SFTLNSYGIS	VIESDARRTFYGDSVK	GRAAGTFDS	15 µM	3/3
GFTLNSYWIS	VICPDGRRTFYGDSVK	GRAAGTFDS	36 µM	1/3
GFTLNSYGIS	VIASKGRRNFYGDSVK	GRAAGTFDS	no signal	0/3
GFTLNSYGIS	VINSDGRRTFEGDSVK	GRACGTFDS	no signal	0/3
GFTLNLYGIS	VIDSDGRRTFYGCSVK	GRAAGTFDS	no signal	0/3
GGTLNSYGIS	VIESDGRRTFYGDSVK	GRAAGTFDS	610 nM	1/3
GFTLNSYGII	IIGSDGRRTFYGDSVK	GRAAGTFDS	130 µM	1/3
GFTLNSYHIS	VIISDGCRTFYGDSVK	GRAAGTFDS	no signal	0/3
GFTLNSYGIS	VICSDGVRTFYRDSVK	GRAAGTFDS	no signal	0/3
GFTLNSYGIS	VIISDGRLTFYGDSVK	GRSAGTFDS	1.5 µM	1/3
GFTLNSYGIS	VIQSDGRRTFYGDSVK	GRAAGTFDS	no signal	0/3
GFTLNSYGIK	VILSDGRRTFYGDSVK	GRAAGTFDD	38 µM	2/3
GFTLNSYEIS	VIGNDGRRTFYGDSVK	GRAAGTFDS	no signal	0/3
GFTLNSYGIS	VFKSDGRRTFYGDRVK	GRAAGTFDS	2.5 µM	1/3
GFTLNSYGIS	VICSDGRQTFYGDSVK	GRAAGTFDS	8.1 µM	1/3
GFTLNSYGIS	VIQSDGRRTFYGDSVK	VIAAGTFDS	no signal	0/3
GFTLNSYGIS	VINSDGRRTFYGDSVK	IRAAGTFDS	no signal	0/3
GFTLNSYGIS	VIISDGRRSFYGDSVF	GRAAGTFDS	no signal	0/3
GFTLNSYGIS	VIQSDGRRTFYGTSVK	GRAAYTFDS	940 nM	1/3
GFTLNTYGIS	VISSDRRRTFYGDSVK	GRAAGTFDS	190 µM	1/3
GFTLNSYNIS	VINSDGRRTFYGMSVK	GRAAGTFDS	no signal	0/3
GFTLNSYGIK	VIDSDGRRTFYIDSVK	GRAAGTFDS	470 µM	1/3
CFTLNSYGIS	VIPKDGRRTFYGDSVK	GRAAGTFDS	no signal	0/3
GFTLEIYGIS	VISSDGRRTFYGDSVK	GRAAGTFDS	4.1 µM	1/3
GFTLNSYGIS	IIWSDGRRTFYGDWVK	GRAAGTFDS	no signal	0/3
GVTLNSYGIS	VIDSDGRRTFYGDSVK	GRAASTFDS	no signal	0/3
AFTLNSYGHS	VIHSDGRRTFYGDSVK	GRAAGTFDS	no signal	0/3

From the list, the first 5 with no signal in any replicate:

| CDR-H1 | CDR-H2 | CDR-H3 | apparent Kd | detected |
|---|---|---|---|---|
| GFTLNSYGIS | VIRSDGRRTFYGSSVK | GRMAGTFDS | no signal | 0/3 |
| GFTLNSYGIS | VIASDGRRTFYGDSVK | GCACGTFDS | no signal | 0/3 |
| GFTLNSYGIS | LISSDGRRTFYGDSVK | GRAAGTFDS | no signal | 0/3 |
| GFTLNSYGIS | VIKSYGRRTFYGDSVK | GRKAGTFDS | no signal | 0/3 |
| GFTLNSYGIS | VIDSDGRRTFYGDSVK | LDAAGTFDS | no signal | 0/3 |

Three control strains display no target. For library AAYL49, 15% of the pairings with them gave a signal, with a median of 11 µM and one signal in twenty below 680 nM, so weak values seen in few replicates may be background.